{
  "source": "patent US20210137911A1",
  "about": "“NOVEL CHRONOTHERAPY BASED ON CIRCADIAN RHYTHMS” (THE TRUSTEES OF THE UNIVERSITY OF PENNSYLVANIA, priority 2014, published 2021)",
  "origin": "cited, not measured here",
  "settings": "in vivo",
  "data": [
    {"molecule": "Ibritumomab (antibody, chains of the INN, looked up) heavy: QAYLQQSGAELVRPGASVKMSCKASGYTFTSYNMHWVKQTPRQGLEWIGAIYPGNGDTSYNQKFKGKATLTVDKSSSTAYMQLSSLTSEDSAVYFCARVVYYSNSYWYFDVWGTGTTVTVSAPSVYPLAPVCGDTTGSSVTLGCLVKGYFPEPVTLTWNSGSLSSGVHTFPAVLQSDLYTLSSSVTVTSSTWPSQSITCNVAHPASSTKVDKKIEPRGPTIKPCPPCKCPAPNLLGGPSVFIFPPKIKDVLMISLSPIVTCVVVDVSEDDPDVQISWFVNNVEVHTAQTQTHREDYNSTLRVVSALPIQHQDWMSGKEFKCKVNNKDLPAPIERTISKPKGSVRAPQVYVLPPPEEEMTKKQVTLTCMVTDFMPEDIYVEWTNNGKTELNYKNTEPVLDSDGSYFMYSKLRVEKKNWVERNSYSCSVVHEGLHNHHTTKSFSR light: QIVLSQSPAILSASPGEKVTMTCRASSSVSYMHWYQQKPGSSPKPWIYAPSNLASGVPARFSGSGSGTSYSLTISRVEAEDAATYYCQQWSFNPPTFGAGTKLELKRADAAPTVFIFPPSDEQLKSGTASVVCLLNNFYPREAKVQWKVDNALQSGNSQESVTEQDSKDSTYSLSSTLTLSKADYEKHKVYACEVTHQGLSSPVTKSFN", "values": [
      {"measurement": "½ Life", "value": 0.8, "unit": "h"}
    ]}
  ]
}
